In PMC5780510, “Insights into the molecular mechanism of dehalogenation catalyzed by D-2-haloacid dehalogenase from crystal structures” (Scientific Reports, 2018):

B1: D-2-haloacid dehalogenase HadD AJ1 from Pseudomonas putida AJ1/23, wild type (enzyme)
chain: MNLPDNSIHLQLPRPVCEAIIRPVPEHRADQELSEIYRDLKATFGVPWVGVITQAVAYYRPFFAEAWRRFAPSAKTHFFERASDDIRIRSWELMGQSFVIEGQTDRLREMGYSVREIGQIRAVLDIFDYGNPKYLIFATAIKEGLLSGRTFGGAAGDARCHFPRSPICQIDPIPVMVEEHHAGGTLSQVYADIKQTLQLPFINSDYKAMARWPSYLEQAWGALKPCIDTPAYQAGRFDINARALAALDALPTAYRMSRDDALQAGLSEAQTDELIQVISLFQWMLSGLVLNVTHFKQQALK
notes: D-2-haloacid dehalogenase HadD AJ1, Pseudomonas putida strain AJ1/23; the 909 bp hadd aj1 gene (ENA AAA25831.1) subcloned into pET-28a between NcoI and XhoI; Homotetramer in the crystal; it gives no residue limits; also called WT; D-DEX

Assays:
C[C@@H](Cl)C(=O)O = assay: purified protein; conditions: 100 mM glycine-NaOH pH 10.0, 30 °C
[1] = molecular target: HadD AJ1 (D-2-haloacid dehalogenase, D-DEX) (Pseudomonas putida, UniProt Q52086); conditions: co-crystallised with 2 mM D-2-CPA, MES pH 6.43, 277 K; product bound in active site
purified protein = substrate: C[C@@H](Cl)C(=O)O; assay: purified protein; conditions: 100 mM glycine-NaOH pH 10.0, 30 °C; remark: listed apart in the source

| Molecule | Km (C[C@@H](Cl)C(=O)O) | kcat (C[C@@H](Cl)C(=O)O) | X-ray crystal structure, 2.18 Å [1] | Km (purified protein) | kcat (purified protein) |
| --- | --- | --- | --- | --- | --- |
| HadD AJ1 (D-2-haloacid dehalogenase, D-DEX) (Pseudomonas putida; D205E) | 4.13 mM | 5.5 s⁻¹ |  |  |  |
| HadD AJ1 (D-2-haloacid dehalogenase, D-DEX) (Pseudomonas putida; V51F) | 2.90 mM | 12.6 s⁻¹ |  |  |  |
| HadD AJ1 (D-2-haloacid dehalogenase, D-DEX) (Pseudomonas putida; N203A) | 12.00 mM | 0.59 s⁻¹ |  |  |  |
| C[C@H](O)C(=O)O [L-LA, L-lactic acid] |  |  | HadD AJ1 was able to bind the product L-LA in the active site |  |  |
| B1 |  |  |  | 0.94 mM | 16.4 s⁻¹ |
